Literature values, collected in patent US20060095982A1 (priority 2002, published 2006).
This is a selection: effects in other tests are not listed, and their absence says nothing.

Tests used:
[1] = system: wild-type seeds; details: 1 mM GTN or 0.05 mM trinitrotoluene; cited from earlier work
[2] = system: Seeds from transgenic tobacco plants expressing pentaerythritol tetranitrate reductase; details: 1 mM GTN or 0.05 mM trinitrotoluene; cited from earlier work

In the case of `Cc1c([N+](=O)[O-])cc([N+](=O)[O-])cc1[N+](=O)[O-]`, the “germination and growth of wild-type seeds” value [1] is given as “inhibited germination and growth” and the “germination and growth of transgenic seeds” value [2] is given as “able to germinate and grow”.
For `O=[N+]([O-])OCC(CO[N+](=O)[O-])O[N+](=O)[O-]`, the “germination and growth of wild-type seeds” value [1] is given as “inhibited germination and growth” and the “germination and growth of transgenic seeds” value [2] is given as “able to germinate and grow”.
